Source: publication PMC5913127

Assays:
[1] = target: Aβ_(1-28) peptide; assay: SPR
[2] = target: ^chaducanumab (murine chimeric IgG2a/kappa version of aducanumab) (human | murine); assay: ELISA; competition: oligomeric Aβ1-42 coated at 2.5 μg/mL; 0.4 nM antibody added with serially diluted monomeric Aβ1-40, 2 h at room temperature; HRP anti-mouse detection

Row | Kd [1] [nM] | koff [1] [s⁻¹] | IC50 [2] [nM] | Substance
1 | 3.5 | 0.0011 | – | 3D6
2 | – | – | > 1000 | monomeric Aβ_(1-40) peptide
